Source: PubChem BioAssay (Broad Institute)
Shown are actives, neighbours in structure and some others; about 1% of the full set was active somewhere.
Rtt109 Vps75: inhibitors of C. albicans Rtt109/Vps75 HAT, primary screen, biochemical, ThioGlo CoA-SH fluorescence, plate reader; purified Rtt109/Vps75, 4 h; inhibition, % at 34.9 µM; 0.16% of 330,000 active;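 active means inhibition of at least 50% in every replicate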
CDK5 inh: inhibitors of human CDK5/p35 kinase, primary screen, biochemical, single concentration; Cyclin-dependent kinase 5 (Homo sapiens) + Cyclin-dependent kinase 5 activator 1 (Homo …; Recombinant CDK5/p35, ADP-Glo luminescence, 60 min; inhibition, % at 10 µM; 0.01% of 330,000 active;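 active means highest replicate inhibition of at least 50% and at least 75% of replicates reaching 50%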;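 further: plate controls were DMSO neutral control for no effect and GW8510 at 10 µM for full effect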
Cneo AK release: Cryptococcus neoformans cell lysis inducers, primary screen, AK release luminescence, single concentration; 0.2% of 360,000 active; C. neoformans lysis, adenylate kinase release luminescence, 4 h; normalised: neutral wells 0, clomiphene wells 100; lysis activity, % at 15 µM;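 active means mean lysis activity across replicates of at least 80%, whatever share of replicates individually reach that level; inactive means mean lysis activity below 80%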
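Assay system: C. neoformans cells. Amount: yeast cell density of 5 × 10^6 cells/mL. Technique: AK luminescence. Buffer or medium: YPD. Times: static 4 h at 37 °C with compound, 1 h detection. Dosing: single-point compound dose. Read-out: lysis from increased AK signal.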
Statin myotox sup: suppressors of statin myotoxicity in C2C12 myotubes, primary screen, cell-based, single point, plate reader | C2C12 myotubes + simvastatin, ATP luminescence, 48 h; scaled: DMSO 0, geranylgeraniol control 100 | rescue of ATP level, % at 7.49 µM | 0.78% of 330,000 active;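 active means mean ATP rescue above about 67%, or every replicate alone reaching that limit, limit read from the data, passing the limit was not always enough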;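 further: myotubes were challenged with 10 µM simvastatin during compound exposure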
Yeast UUG start: alters start codon recognition fidelity in yeast; S. cerevisiae UUG-firefly luciferase reporter, luminescence/redox ratio; activity score, % at 18.7 µM; actives 0.13% (n = 350,000); AID 602363;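 active = replicate mean at a twofold rise or more, about +100% in these data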;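 also: firefly luciferase made from a UUG start codon reports start codon fidelity; reporter light over untreated wells divided by growth signal over untreated wells; some hits fall short of that in this replicate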
* hit, by the source's call; x = no result.

SMILES	Rtt109 Vps75	CDK5 inh	Cneo AK release	Statin myotox sup	Yeast UUG start
Cc1ccc(S(=O)(=O)N(C)C[C@@H]2OCCCC[C@@H](C)Oc3ccc(NC(=O)Nc4ccccc4)cc3C(=O)N([C@@H](C)CO)C[C@@H]2C)cc1	x	x	1	x	-21
C[C@@H]1CN([C@@H](C)CO)C(=O)c2cc(NS(=O)(=O)c3cccs3)ccc2O[C@@H](C)CCCCO[C@H]1CN(C)CC1CCCCC1	x	x	1	x	5
COC(=O)C[C@H]1C=C[C@@H](NC(=O)c2ccccc2)[C@H](CO)O1	x	x	0	-6	-9
COc1ccccc1CNC(=O)C[C@@H]1C[C@H]2c3cc(NC(=O)Nc4ccccc4F)ccc3O[C@H]2[C@@H](CO)O1	x	x	94*	-3	21
COc1ccccc1CNC(=O)C[C@H]1C[C@H]2c3cc(NC(=O)Nc4ccccc4F)ccc3O[C@H]2[C@@H](CO)O1	x	x	1	5	5
COc1ccccc1CNC(=O)C[C@H]1C[C@H]2c3cc(NC(=O)Nc4ccccc4F)ccc3O[C@H]2[C@H](CO)O1	x	x	4	-8	-5
COc1ccccc1CNC(=O)C[C@@H]1C[C@@H]2c3cc(NC(=O)Nc4ccccc4F)ccc3O[C@@H]2[C@H](CO)O1	x	x	103*	-8	7
CC(C)(C)NC(=O)CSc1nnc(-c2ccccn2)n1-c1ccccc1	-3	-1	4	-9	-11
c1ccc(CSc2nnc(-c3ccccn3)n2-c2ccccc2)cc1	9	0	-4	107*	-4
O=C1CC(N2CCN(C/C=C/c3ccccc3)CC2)C(=O)N1Cc1ccc(N2CCCC2=O)cc1 (configuration not stated)	6	0	2	100*	0
CC(C)NC(=O)N1[C@H](CO)[C@@H]2c3ccccc3N(C(=O)C3CCCCC3)C[C@@H]21	x	x	-3	-2	-4
COc1ccc(Nc2nccc(-c3cccc(N)c3)n2)cc1	-3	16	-4	4	-30
COc1ccc(Nc2nccc(-c3ccc(C#N)cc3)n2)cc1	10	55*	0	15	-11
O=C(Nc1ccc2nc3n(c(=O)c2c1)CCCCC3)c1c(F)ccc([N+](=O)[O-])c1F	-12	-1	-1	204*	-16
O=C(Nc1ccc2nc3n(c(=O)c2c1)CCCCC3)c1cc([N+](=O)[O-])ccc1F	-11	-1	0	-39	-4
CO[C@H]1CN(C)C(=O)c2cc(NC(=O)NC3CCCCC3)ccc2OC[C@H](C)N(CC2CC2)C[C@H]1C	x	x	-5	-4	-3
COc1ccc(C2CC(c3c(O)cc(C)oc3=O)=NCCS2)c(OC)c1 (configuration not stated)	6	4	-2	117*	-9
O=C(C[C@H]1CC[C@H]2[C@@H](COC[C@@H](O)CN2C(=O)c2ccc(F)cc2)O1)Nc1nccs1	x	x	60	11	-1
CN1c2ccc(-c3ccc(F)cc3)cc2[C@H]2[C@H](CCN2S(=O)(=O)c2cccc(F)c2)[C@H]1CO	x	x	104*	-1	3
CN1c2ccc(Br)cc2[C@@H]2[C@@H](CCN2C(=O)Cc2cccnc2)[C@@H]1CO	x	x	90*	16	24

Record cards (already shown). Order of values: Rtt109 Vps75	CDK5 inh	Cneo AK release	Statin myotox sup	Yeast UUG start
`c1ccc(CSc2nnc(-c3ccccn3)n2-c2ccccc2)cc1` across the screens: 9	0	-4	107*	-4
`CC(C)NC(=O)N1[C@H](CO)[C@@H]2c3ccccc3N(C(=O)C3CCCCC3)C[C@@H]21` across the screens: x	x	-3	-2	-4
`O=C(Nc1ccc2nc3n(c(=O)c2c1)CCCCC3)c1cc([N+](=O)[O-])ccc1F` across the screens: -11	-1	0	-39	-4

New compounds follow:
SMILES	Rtt109 Vps75	CDK5 inh	Cneo AK release	Statin myotox sup	Yeast UUG start
CN1c2ccc(-c3ccc(F)cc3)cc2[C@@H]2[C@@H](CCN2C(=O)C2CCOCC2)[C@H]1CO	x	x	73	1	5
CN1c2ccc(-c3ccc(F)cc3)cc2[C@@H]2[C@@H](CCN2S(=O)(=O)c2cccc(F)c2)[C@@H]1CO	x	x	1	-34	2
CN1c2ccc(-c3ccc(F)cc3)cc2[C@@H]2[C@@H](CCN2C(=O)C2CCOCC2)[C@@H]1CO	x	x	81*	10	22
C[C@H](CO)N1C[C@H](C)[C@H](CN(C)C(=O)Nc2ccc3c(c2)OCO3)Oc2c(NC(=O)c3cnccn3)cccc2C1=O	x	x	50	22	10
Cc1cccc(NC(=O)c2cc(Cl)nc3ccccc23)c1	-4	0	0	93*	-26
CSc1nc(N2CCOCC2)c2c3c(sc2n1)CCC3	2	1	13	98*	-10
CC(C)N=Cc1c(O)[nH]c2ccccc12	2	3	-1	83*	-1
CC1=C(C(=O)OC2CCCC2)C(c2ccc(C)o2)C2=C(CC(c3cccs3)CC2=O)N1 (configuration not stated)	4	-2	-10	102*	-7
O=C(C[n+]1cc(-c2ccc(Cl)c(Cl)c2)n2c1CCC2)N1c2ccccc2Sc2ccccc21	57*	-2	x	x	x
O=C(C[n+]1cc(-c2ccc(Cl)cc2)n2c1CCC2)N1c2ccccc2Sc2ccccc21	17	0	0	x	-5
O=C(O)c1c[nH]c2ccc(S(=O)(=O)N3CCOCC3)cc12	-5	2	4	107*	-14
O=C(NCCN1CCOCC1)c1c[nH]c2ccc(S(=O)(=O)N3CCOCC3)cc2c1=O	11	0	-2	x	-13
CCOC(=O)c1sc(=S)n(-c2ccc(Cl)cc2)c1SC	-2	1	-1	105*	-27
CCOC(=O)c1sc(=S)n(-c2ccc(F)c(F)c2)c1N	8	0	x	x	x
O=C(O)c1ccc(N/N=C/c2ccc(-c3ccc(Br)cc3)o2)cc1	16	1	-3	72*	-9
COc1ccc(/C=N/N=C/c2ccc(OC)c(OC)c2)cc1OC	-10	-1	0	8	-2
COc1cc(/C=N/N=C(N)N)ccc1OCc1ccccc1Cl	69*	2	x	x	x
CC(NC(=O)COc1ccccc1)C(c1ccccc1)N1CCN(C)CC1 (configuration not stated)	9	1	4	90*	-7
CCOc1ccc(NC(=S)NC(C)C(c2ccccc2)N2CCN(C)CC2)cc1 (configuration not stated)	-2	-1	x	x	x
COc1ccccc1C=NN1C(=O)CSC1=S	-5	-3	x	x	x

Records listed above printed as active in CDK5 inh:
molecule	Rtt109 Vps75	CDK5 inh	Yeast UUG start
COc1ccc(Nc2nccc(-c3ccc(C#N)cc3)n2)cc1	10	55*	-11

Further entries
SMILES	Rtt109 Vps75	CDK5 inh	Cneo AK release	Statin myotox sup	Yeast UUG start
O=C1CSC(=S)N1/N=C/c1ccc(O)c(O)c1O	196*	6	-1	2	-16
COc1ccc(S(=O)(=O)NCc2cccnc2)c2ccccc12	-2	-2	1	94*	-5
O=S(=O)(NCc1cccnc1)c1ccc(Br)c2ccccc12	1	1	1	10	-7
COc1ccc(OC)c(S(=O)(=O)NCc2cccnc2)c1	-4	0	0	126*	-18
C[C@@H]1CN([C@H](C)CO)C(=O)c2cc(-c3ccccc3)cnc2O[C@@H]1CN(C)Cc1cccnc1	x	x	53	17	-7
CCOc1ccc(-c2nc(CSCC(=O)NCCN3CCOCC3)c(C)o2)cc1	1	-1	x	102*	x
Cc1ccc(C(=O)NCCNC(=O)COc2ccc(C)c(C)c2)cn1	x	0	-3	-2	-15
Cc1ccc(C(=O)NCCCNC(=O)COc2ccc(C)c(C)c2)cn1	55*	1	2	-2	-10
